Assay results as given in ChEMBL document CHEMBL1156263, “Single agents with designed combination chemotherapy potential: synthesis and evaluation of substituted pyrimido[4,5-b]indoles as receptor tyrosine kinase and thymidylate synthase inhibitors and as antitumor agents” (J Med Chem, 2010).

Test: Inhibition of Escherichia coli thymidylate synthase

IC50: 15 µM
Structure (SMILES): Nc1nc2[nH]cc(CCc3ccc(C(=O)N[C@@H](CCC(=O)O)C(=O)O)cc3)c2c(=O)[nH]1 [PEMETREXED]
